Results as given in ChEMBL document CHEMBL1123068, “2-Fluoroformycin and 2-aminoformycin. Synthesis and biological activity” (J Med Chem, 1985).

Assay: Ratio of kinetic parameters Vmax to the of Km; Vmax/Km

Ratio	SMILES
0.017	Nc1nc(F)nc2c([C@@H]3O[C@H](CO)[C@@H](O)[C@H]3O)n[nH]c12
4.3	Nc1nc(N)c2[nH]nc([C@@H]3O[C@H](CO)[C@@H](O)[C@H]3O)c2n1
8	Nc1ncnc2c([C@@H]3O[C@H](CO)[C@@H](O)[C@H]3O)[nH]nc12
